Experimental data published in US11738063B2, “Pharmaceutical composition for preventing or treating neurodegenerative diseases which includes flower extract of Daphne genkwa or fractions thereof as active ingredient” (KOREA RESEARCH INSTITUTE OF BIOSCIENCE AND BIOTECHNOLOGY, priority 2016, dated 2023).

Tested on: Salmonella typhimurium TA1535
Test: Bacterial reverse mutation assay, TA1535
Settings: TA1535, S9+, 3.0 μg/plate, positive control

Nc1ccc2cc3ccccc3cc2c1 [2-Aminoanthracene (2-AA), 2-Aminoanthracene]
Mean revertant colony count: 164
